Values quoted from earlier work, collected in patent publication US7977431B2, “Dithiocarbamic esters” (LANXESS Deutschland GmbH, priority 2002, dated 2011).

Conditions: parent form Z-H of substituent Z

**Q.** Which pKa value does the source give for c1c[nH]cn1 [imidazole] here?
**A.** 14.5
